Hits are enriched below; roughly 2.8% of the tested compounds scored in any of these assays.
PglD inh – C. jejuni PglD acetyltransferase inhibitors, primary screen, biochemical, DTNB colorimetric, single point; AID 602405, 2012; 0.098% of 360,000 active; UDP-N-acetylbacillosamine N-acetyltransferase PglD (Campylobacter jejuni); purified PglD enzyme, DTNB colorimetric CoA detection; inhibition, % at 12.5 µM; in the data active means inhibition above about 16%, passing the limit was not always enough
Yeast UUG start – yeast start codon fidelity modulation | S. cerevisiae UUG-firefly luciferase reporter, luminescence/redox ratio | activity score, % at 18.7 µM | 0.13% of 350,000 active | AID 602363;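 active means replicate mean at a twofold rise or more, about +100% in these data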;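 further: firefly luciferase made from a UUG start codon reports start codon fidelity; reporter light over untreated wells divided by growth signal over untreated wells; some hits fall short of that in this replicate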
esBAF inh – Bmi1 luciferase reporter increase in mESCs, primary screen, esBAF inhibitor project, mouse ES cells, Bmi1 luciferase knock-in, single point; 24 h; 100% = twice the neutral-well signal; reporter increase, % at 12.5 µM; 2% of 350,000 active; AID 602393, 2012; in the data active means activation above about 40%;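 further: 0% = median of the plate's neutral control wells and 100% = double that signal; a rise in the Bmi1 reporter signal indicates esBAF inhibition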
E-sel inducer – E-selectin induction in HUVECs, primary screen, imaging, HUVEC, immunofluorescence imaging, single point. P16581. normalized: neutral wells 0, TNF-alpha wells 100. activation, % at 7.58 µM. 0.37% of 260,000 active. AID 686992, 2013;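 active means mean E-selectin-positive cell signal at least 10% of the positive control, reached in at least 60% of replicates, without over 20% cell loss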
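System: HUVEC / Compound: single concentration / Signal: immunofluorescence imaging / Read-out: percent E-selectin-positive cells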
Statin myotox sup – suppressors of statin myotoxicity in C2C12 myotubes, primary screen, cell-based, single point, plate reader. C2C12 myotubes + simvastatin, ATP luminescence, 48 h; scaled: DMSO 0, geranylgeraniol control 100. rescue of ATP level, % at 7.49 µM. 0.78% of 330,000 active;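 active means mean ATP rescue above about 67%, or every replicate alone reaching that limit, limit read from the data, passing the limit was not always enough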;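 further: myotubes were challenged with 10 µM simvastatin during compound exposure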
PGC1a acetyl inh – inhibitors of PGC1a acetylation signal, primary screen, cell-based, U2OS, AlphaScreen, inhibitor mode | AlphaScreen anti-acetyl-lysine; with virally co-expressed GCN5 acetyltransferase | inhibition, % at 15.6 µM | 0.17% of 350,000 active | AID 651687, 2012;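 active means every replicate shows inhibition of at least 40%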;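 further: 0% = neutral control wells and 100% = positive control wells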
The depositor's hits bear a star; nt = no result given.

SMILES	PglD inh	Yeast UUG start	esBAF inh	E-sel inducer	Statin myotox sup	PGC1a acetyl inh
COc1ccc2c3c(n(C)c2c1)[C@@H](CO)N(C(=O)Nc1ccc(F)cc1)CC31CCN(Cc2ccccc2F)CC1	nt	nt	nt	1	nt	-15
COC(=O)c1sc2nc(SCC(=O)N(C)c3ccccc3)n(N)c(=O)c2c1C	nt	nt	-6	154*	-2	-3
COC(=O)c1sc2nc(SCc3ccccc3C)n(N)c(=O)c2c1C	nt	nt	nt	-1	nt	nt
COc1ccc(S(=O)(=O)N2CC3(CN(Cc4ccccc4OC)[C@H](CO)c4[nH]c5cc(OC)ccc5c43)C2)cc1	nt	nt	nt	0	nt	-21
COc1cc2nc(N3CCN(C(=O)C4COc5ccccc5O4)CC3)nc(N)c2cc1OC (configuration not stated)	1	5	-5	61*	-5	nt
CCOC(=O)C1(Cc2ccccc2C)CCCN(C(=O)c2cc(CC)nn2C)C1 (configuration not stated)	nt	nt	nt	4	nt	-5
CCOC(=O)C1(Cc2cccc(OC)c2)CCCN(S(=O)(=O)CC)C1 (configuration not stated)	2	2	-7	nt	8	nt
CCOC(=O)C1(Cc2ccccc2C)CCCN(C(=O)c2ccnn2C)C1 (configuration not stated)	5	-5	8	114*	-9	0
CCOC(=O)C1(Cc2ccccc2)CCCN(C(=O)C=C(C)C)C1 (configuration not stated)	0	-14	60*	-1	7	5
CCOC(=O)C1(Cc2ccccc2)CCCN(C2CCN(C(C)=O)CC2)C1 (configuration not stated)	-9	2	-1	-2	1	3
CCOC(=O)C1(Cc2cccc(OC)c2)CCCN(C(=O)CSC)C1 (configuration not stated)	-2	-14	59*	0	-4	-11
CC#CC(=O)N1CCCC(Cc2cccc(OC)c2)(C(=O)OCC)C1 (configuration not stated)	-7	-8	59*	nt	1	-1
COc1ccc(NC(=O)N(C)C[C@H]2Oc3c(NC(=O)Nc4ccccc4)cccc3C(=O)N([C@H](C)CO)C[C@H]2C)cc1	1	11	-2	0	2	3
CN1C(=O)c2cc(NC(=O)c3cccs3)ccc2OC[C@@H]2O[C@H](CC(=O)O)CC[C@@H]21	0	-7	2	0	1	0
CCOC(=O)C1(Cc2cccc(Cl)c2)CCCN(C(=O)c2cccnc2)C1 (configuration not stated)	nt	nt	4	nt	-14	97*
Nc1ccccc1-c1nc2ccccc2[nH]c1=O	0	-8	53*	0	-1	nt
CN1C(=O)c2cc(NC(=O)c3cccc(F)c3)ccc2OC[C@H]2O[C@@H](CC(=O)NC3CCC3)CC[C@H]21	-16	9	0	0	-9	3
COc1ccc(-c2cnc3c(c2)C(=O)N([C@@H](C)CO)C[C@@H](C)[C@H](CN(C)S(C)(=O)=O)O3)cc1	-2	16	0	0	0	8
Cc1nn(C)c(C)c1C(C)NC(=O)c1cc(COc2ccc(F)c(F)c2)on1 (configuration not stated)	0	-20	51*	0	-2	2
O=C(COc1ccc(F)cc1)c1ccc2c(c1)CCCC2	-5	-10	42*	nt	1	-7
O=C1CCC2CN3CCc4c([nH]c5ccccc45)C3CC2C1 (configuration not stated)	-4	-22	-2	0	1	-3
OC1CCC2CN3CCc4c([nH]c5ccccc45)C3CC2C1 (configuration not stated)	-5	62	62*	nt	1	-5
COc1ccccc1-c1ccc2c(c1)O[C@@H](CN(C)C(=O)c1ccccc1)[C@@H](C)CN([C@H](C)CO)S2(=O)=O	0	8	-1	0	-7	-9
CCC(=O)N1CC(=O)N2[C@H](CO)[C@H](c3ccc(C#Cc4cccnc4)cc3)[C@@H]2C1	nt	nt	nt	1	nt	9
COCCNC(=O)C(c1ccc(C)o1)N(Cc1ccc(F)cc1)C(=O)Cn1nnc2ccccc21 (configuration not stated)	2	0	1	nt	18	5
COCCNC(=O)C(c1ccc(C)o1)N(Cc1ccc(OC)cc1)C(=O)Cn1nnc2ccccc21 (configuration not stated)	-4	-19	5	nt	104*	-6
Nc1nc(Nc2ccccc2F)nc(N2CCCC2)c1[N+](=O)[O-]	-4	-6	70*	1	-4	-4
CC(C)COC(=O)N(C)C[C@H]1OCc2cnnn2CCCC(=O)N([C@@H](C)CO)C[C@@H]1C	-1	-2	-1	0	-14	0
CCCCN(C(=S)NC(=O)c1ccccc1)c1c(N)n(Cc2ccccc2)c(=O)[nH]c1=O	5	-26	-4	40*	9	-8
CCN(C(=O)Cn1ccc(C(F)(F)F)n1)c1c(N)n(Cc2ccccc2)c(=O)[nH]c1=O	2	-14	-7	110*	0	nt

An excerpt of these results, field by field:
CN1C(=O)c2cc(NC(=O)c3cccc(F)c3)ccc2OC[C@H]2O[C@@H](CC(=O)NC3CCC3)CC[C@H]21
  PglD inh = -16
  Yeast UUG start = 9
  esBAF inh = 0
  E-sel inducer = 0
  Statin myotox sup = -9
  PGC1a acetyl inh = 3

COc1ccccc1-c1ccc2c(c1)O[C@@H](CN(C)C(=O)c1ccccc1)[C@@H](C)CN([C@H](C)CO)S2(=O)=O
  PglD inh = 0
  Yeast UUG start = 8
  esBAF inh = -1
  E-sel inducer = 0
  Statin myotox sup = -7
  PGC1a acetyl inh = -9

COc1ccc(-c2cnc3c(c2)C(=O)N([C@@H](C)CO)C[C@@H](C)[C@H](CN(C)S(C)(=O)=O)O3)cc1
  PglD inh = -2
  Yeast UUG start = 16
  esBAF inh = 0
  E-sel inducer = 0
  Statin myotox sup = 0
  PGC1a acetyl inh = 8

O=C1CCC2CN3CCc4c([nH]c5ccccc45)C3CC2C1 (configuration not stated)
  PglD inh = -4
  Yeast UUG start = -22
  esBAF inh = -2
  E-sel inducer = 0
  Statin myotox sup = 1
  PGC1a acetyl inh = -3

Next compounds
SMILES	PglD inh	Yeast UUG start	esBAF inh	E-sel inducer	Statin myotox sup	PGC1a acetyl inh
C[C@@H]1CN([C@@H](C)CO)C(=O)c2cc(Br)cnc2O[C@H]1CN(C)C(=O)C1CCC1	nt	nt	nt	0	7	-1
CO[C@@H](CN(C)S(=O)(=O)c1ccc(C)cc1)[C@@H](C)CN(Cc1ccccc1Cl)[C@H](C)CO	-1	nt	0	0	-5	-10
CC(=O)Nc1cccc2c1Cc1ccccc1-2	9	-4	51*	nt	7	9
CC(=O)Nc1cccc2c1Cc1cc([N+](=O)[O-])ccc1-2	nt	nt	nt	0	nt	-7
CC(=O)c1ccc2c(c1)C1C=CCC1C(c1ccncc1)N2 (configuration not stated)	-6	-1	54*	nt	4	2
COCCNC(=O)c1cc2oc3ccccc3c2n1C	-1	-3	72*	nt	-6	-6
COC(=O)C[C@H]1CC[C@H]2[C@H](COc3ccc(NS(C)(=O)=O)cc3C(=O)N2C)O1	3	-17	-4	0	13	-1
CCOc1ccc(C(F)(F)F)cc1NC(=O)COc1ccc(C(F)(F)F)cc1[N+](=O)[O-]	-3	-10	-14	nt	-8	-9
CCOc1ccc(C(F)(F)F)cc1NC(C)=O	1	-11	-7	nt	96*	-11
O=C(N[C@H]1CC[C@H](CC(=O)N2CCCCC2)O[C@H]1CO)c1ccc2c(c1)OCO2	0	-8	0	0	1	5
